# Measurements from PMC8838982 (Bioorganic chemistry, 2021).
# Target: influenza virus polymerase (Influenza A virus, UniProt P03433)
# Assay type: cell-based, influenza virus A/PR/8/34
compound,measurement,value
"NC(=O)c1ncn([C@@H]2O[C@H](CO)[C@@H](O)[C@H]2O)n1 [Ribavirin, ribavirin]",Fold increase in EC50 compared to wild-type,1.0 fold
